## Antibody variant affinities, Ab-14 heavy chain, assay 1

Reference: Engelhart et al. 2022, doi:10.1038/s41597-022-01779-4. File: FLAb, binding data.

Binding partner: SARS-CoV-2 spike HR2 peptide, sequence PDVDLGDISGINAS.

Ab-14 is the parent antibody, in scFv form: VH, then a (GGGGS)3 linker, then VL. The light chain is unchanged in all variants.
VH: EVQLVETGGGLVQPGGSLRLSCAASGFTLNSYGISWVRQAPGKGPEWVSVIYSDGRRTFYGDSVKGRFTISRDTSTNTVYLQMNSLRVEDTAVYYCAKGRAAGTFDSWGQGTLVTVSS
VL: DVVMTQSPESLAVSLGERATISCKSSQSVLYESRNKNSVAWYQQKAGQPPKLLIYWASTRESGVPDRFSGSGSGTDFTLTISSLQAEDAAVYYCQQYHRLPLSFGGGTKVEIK

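Phage display of a naive human antibody library on the peptide gave the parent. The library (AAYL49) carries one to three amino acid substitutions per variant, with no insertions or deletions. Affinity was read by AlphaSeq, a pooled yeast mating assay with surface-displayed partners. Pairs that bind mate more often; barcode pairs of the diploids are counted by sequencing. The ratio of observed to expected reads was calibrated, replicate by replicate, on BCL2-family standards whose Kd was known from biolayer interferometry. Mating was done three times.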

Positions count from residue 1 of the parent VH; S31T puts T in place of S.
This list gathers variants with a substitution at S31 (VH, numbered from residue 1).
Values are apparent Kd, the geometric mean of the replicates that gave a signal; lower means stronger binding.
Where no diploid with the target was found in any replicate, the entry reads "no signal": below detection, most likely a poor binder, though not proof of it.
Background: pairings of library AAYL49 with three empty control strains gave a value in 15% of cases (median 11 µM, 5th percentile 680 nM). Values in that range, when seen in few replicates, are hard to tell from nonspecific mating.

changes	apparent Kd	detected
S31T+Y32N+A101W	4.2 µM	1 of 3
S31K+G33K+I51K	3.9 µM	1 of 3
S31K+I34H+R56F	170 nM	1 of 3
S31W+D54L+G55K	no signal	0 of 3
S31G+T58E+G61V	75 nM	2 of 3
S31P+G61F+S63E	22 µM	1 of 3
S31K+Y52M+S53V	260 µM	1 of 3
S31L+A101K+S107E	no signal	0 of 3
S31G+I51K+G103A	no signal	0 of 3
S31K+S63Y+G99P	no signal	0 of 3
G26L+S31R+S63K	6.3 nM	3 of 3
S31N+T58F+K65G	9.6 µM	2 of 3
G26Q+S31Y+D106I	no signal	0 of 3
S31M+V64H+S107H	no signal	0 of 3
S31L+I34A+G55S	2.4 µM	1 of 3
F27G+S31E+I34M	7.9 µM	1 of 3
S31E+S53M+G55Q	440 nM	1 of 3
S31M+G33E+K65W	720 nM	1 of 3
F27P+S31A+T104Y	33 µM	2 of 3
S31K	11 nM	3 of 3
F27G+S31P+G55K	no signal	0 of 3
S31N+F59S+S63C	230 nM	3 of 3
S31F+I51L+F105A	no signal	0 of 3
S31V+I34A+D62P	1.6 µM	1 of 3
S31Q+V64G+T104P	1.7 µM	1 of 3
T28I+S31C+S53C	62 µM	1 of 3
S31F+R57T+V64I	no signal	0 of 3
S31W+R57S	370 µM	2 of 3
S31R+G33Q	no signal	0 of 3
S31F+Y32W	1.0 µM	1 of 3
F27T+S31A+F59I	no signal	0 of 3
L29W+S31Q	2.0 µM	1 of 3
L29C+S31D+I51M	2.2 µM	2 of 3
S31D+Y32I+R56W	no signal	0 of 3
T28I+L29Y+S31K	64 µM	1 of 3
T28W+S31D+V50G	29 µM	1 of 3
S31M+G33A+I51L	1.1 µM	1 of 3
S31A+G33L+K65V	no signal	0 of 3
S31T+Y52H+D106P	13 µM	1 of 3
S31K+G55Y+A102K	31 µM	1 of 3
S31W+R56I+R57Q	4.0 µM	1 of 3
S31F+S53I+K65G	280 µM	1 of 3
S31P+R100E+F105A	no signal	0 of 3
S31D+R57W+K65E	no signal	0 of 3
G26C+S31N+S107A	26 nM	3 of 3
S31D+F105Q	4.8 nM	3 of 3
S31W+F59S+G99F	no signal	0 of 3
G26A+S31A+V64Q	no signal	0 of 3
S31W+R57C+S63A	48 µM	1 of 3
S31H+V50Q+D106K	no signal	0 of 3
S31Q+I51Y+D54V	no signal	0 of 3

The first 4 entries again:

| changes | apparent Kd | detected |
|---|---|---|
| S31T+Y32N+A101W | 4.2 µM | 1 of 3 |
| S31K+G33K+I51K | 3.9 µM | 1 of 3 |
| S31K+I34H+R56F | 170 nM | 1 of 3 |
| S31W+D54L+G55K | no signal | 0 of 3 |

For reference, the parent read 4.4 nM as the reference entry and 13 µM (one replicate of three) as a member of this library.